ChEMBL document CHEMBL3763153, “Recent Update on Human Lactate Dehydrogenase Enzyme 5 (hLDH5) Inhibitors: A Promising Approach for Cancer Chemotherapy” (J Med Chem, 2016)

Biological target: L-lactate dehydrogenase A chain (Homo sapiens, UniProt P00338)

Ki: 136 µM
SMILES: NC(=O)C(=O)O [OXAMATE]
